# From patent US12059499B2, “Liposome loading” (PLUMB PHARMACEUTICALS, INC., priority 2015, dated 2024)
# Test: Liposome leakage, sedimentation method
# Assay type: physicochemical
# Method: Liposome Leakage, Sedimentation Method. Liposome samples were diluted to 3-5 mL and left on an orbital shaker at 22° C. At specific time points, the liposomes were sedimented in a centrifuge at 300×g for 5 minutes and an aliquot of the clear supernatant was analyzed spectrophotometrically for drug and loading base content. After measurement, the solution was returned to the liposome suspension, which was vortexed and returned to the orbital shaker.
# Then, 400 microliters of a pyridinium salt solution (prewarmed to 58° C.) were added to the lipid suspension. The mixture was kept at 58° C. for 5 minutes and then 100 microliters of the pyridinium salt solution were added. The mixture was cooled and diluted with 0.99% w/v sodium chloride. […] A total of three washes were performed. Naltrexone solution was then added in 150 mM citrate (pH 7.0) and the mixture was left to load for 48 hours. After loading, residual non-loaded naltrexone and released pyridine were removed by dilution with saline and sedimentation a total of three times. Naltrexone and pyridine content were measured spectroscopically. The samples were subsequently monitored for release of naltrexone using the sedimentation method. Two trials were performed for each condition.
substance,measurement,value
pyridinium sulfate,release of naltrexone in 900 hours,~5%
